Values quoted from earlier work, collected in patent US11571373B2, “Skin care preparations for babies” (priority 2015, dated 2023).

Tests used:
[1] = species and route not given

Substance: Tocopherol
- LD50 (dermal) (rat) (rat): > 3,000 mg/kg
- LD50 (oral) (mouse) (mouse): > 25 mL/kg
- Oral LD50 value (mouse) (mouse): 50,000 mg/kg
- The actual or estimated LD50 value [1]: 7000 mg/kg body weight
